Measured values from paper PMC9525908, “α-Crystallin chaperone mimetic drugs inhibit lens γ-crystallin aggregation: Potential role for cataract prevention” (The Journal of Biological Chemistry, 2022).

System: bovine gamma crystallins
Test: Screen: H2O2 and heat mediated aggregation of bovine gamma crystallins, turbidimetry at 600 nm
Assay type: biochemical
Details: bovine γ-crystallin-rich proteins, oxidant stress 24 h and/or thermal stress 72 °C 20 min
Protocol: For the initial screen, a microtiter plate assay was developed in which bovine crystallins (2 mg/ml of 50 mM K3PO4 buffer, pH 7.2 [buffer A]) were exposed to H2O2 at varying concentrations (1–50 mM) for 12 to 36 h, upon which turbidity developed (at 50 mM H2O2 concentration) in both β- and γ-crystallins (Fig. 1, A and B). […] This was determined by turbidimetry at 600 nm (Fig. 1C) and confirmed using visual assessment of solution transparency over a fine text as well as the presence of cloudy aggregates visible by dark field microscopy (Fig. 1D). The drug:protein stoichiometric ratio was about 5:1. […]
Wells were filled with 90 μl calf γ-crystallin-rich protein solution (pool 4 at 2 mg/ml) followed by 0.5 to 5.0 μl of drug (all 10 mM stock solution in DMSO) as supplied by the manufacturer and 10 μl H2O2 (450 mM stock solution in water) and sealed with sticky Applied Biosystems MicroAmp Clear Adhesive films (Life Technologies). […] In order to quantitate the impact of the drugs on aggregation, a fitness plot was created (Fig. 1 C) that allowed us to identify wells with enhanced/worsening versus suppressed crystallin aggregation. In addition, aggregation in each well was also visually assessed by two independent “blinded” readers for the ability to read fine print through each well by placing the plates over small font text (Fig. 1D). […]

## Oc1c(Cl)cc(Cl)c(Cl)c1Cc1c(O)c(Cl)cc(Cl)c1Cl [drug X, Hexachlorophene]
  Antiaggregation activity: Medium heat shock inhibitor
